# “And” between values parts separate entries of the source, which are not always exact repeats. Equal entries are not always repeated.
# Columns and labels:
# L. infantum [1] = experiment: Chronic hamster infection model (VL); assay type: in vivo, golden hamsters
# Text: (§1) Female golden hamsters (5 per treatment group) were infected through intracardiac administration of 2x10^7 L. infantum amastigotes obtained from the spleen of a heavily infected donor hamster. DNDI-6174, miltefosine as reference control or vehicle were orally administrated from day 21 post-infection. After 5-day treatment period, followed by a 10-day wash out period, animals were sacrificed, and parasites burden assessed in the three target organs (liver, spleen, and bone-marrow). For this assessment, organs of individual animals were weighed, except for bone-marrow thus only providing a semi-quantitative evaluation only. Impression smears were Giemsa-stained for microscopic evaluation of amastigote burden, expressed as LDU (= mean number of amastigotes/cell × organ weight in mg) and the results were expressed as a percentage reduction compared to the burdens in the control group (vehicle as placebo). For evaluating the presence of viable residual burden after treatment, a promastigote back-transformation assay was conducted. This consisted of the incubation at ambient temperature of aseptically collected pieces of spleen or liver tissue in 1 mL of promastigote back-transformation medium in 24-well plates. For the bone-marrow, resected femurs were flushed with 1 mL medium. The medium consists of HOMEM pH 6.0 prepared as described elsewhere ([5]) with 10% fetal bovine serum (Gibco), 2.5% penicillin/streptomycin and 1% gentamicin (Merck). A qualitative assessment of the presence of promastigotes was made after 3 and 5 days of incubation and a score was attributed (+, ++ or +++) based on parasite density in the positive wells.
# L. infantum [2] = experiment: Promastigote back-transformation assay on organs of treated hamsters; assay type: in vivo, golden hamsters; set-up: key: an arbitrary parasite score attributed (+, ++ or +++) based on visual inspection of parasite density in the positive wells; an arbitrary parasite score attributed (+, ++ or +++) based on visual inspection of parasite density in the positive wells; an arbitrary parasite score attributed (+, ++ or +++) based on visual inspection of parasite density in the positive wells; A score of “-“is attributed in the absence of parasite; details: 5 days
# Text: as §1
# Supplementary Materials and methods
# Promastigote transformation assay
# For evaluating the presence of viable residual burdens after treatment, a promastigote back-transformation assay is conducted. This test consists of the incubation at ambient temperature of aseptically collected pieces of spleen or liver tissue in 1 mL of promastigote back-transformation medium in 24-well plates. For the bone-marrow, resected femurs are flushed with 1 mL medium. The medium consists of HOMEM pH 6.0 prepared as described elsewhere (1) with 10% fetal bovine serum (Gibco) and 2.5% penicillin/streptomycin and 1% gentamicin (Merck). A qualitative assessment of the presence of promastigotes is made after 3 and 5 days of incubation and a score is attributed (+, ++ or +++) based on parasite density in the positive […]
# Supplementary Information on Tables
# L. infantum MHOM/FR/96/LEM3323 Cl4 was originally obtained from a French HIV-positive patient (Languedoc area in Southern France) and provided by Dr. Laurence Lachaud of the Centre National de Référence des Leishmanioses (CNRL), Montpellier, France. The miltefosine and paromomycin resistant lines (LEM3323 Cl4 MIL-R and PMM-R) were obtained by successive in vitro selection cycles on intracellular amastigotes (2, 3)
# In vivo pharmacokinetics = experiment: In vivo pharmacokinetics; set-up: species or system female BALB/c mice; details: female, BALB/c, plasma; Mouse, intravenous 2.0 mg/kg; read-out: Plasma Vss
# Method: Single dose intravenous (IV) pharmacokinetic (PK) studies in male Sprague Dawley rats and IV and oral PK studies in female BALB/c mice were conducted at Monash University. DNDI-6174 was administered by IV infusion (n=3 rats) over 10 min via a cannula implanted in the jugular vein on the day prior to dosing at a dose of 3 mg/kg prepared in 0.9% saline containing 5% DMSO and 2% Solutol HS-15 (1 mL dose volume). Blood was sampled via a cannula implanted in the carotid artery (also on the day prior to dosing) at pre-determined time points up to 24 h post-dose. Samples were transferred to vials containing heparin as an anticoagulant, gently mixed and centrifuged, and plasma separated for subsequent quantitative analysis using LC-MS. […] Mouse blood was sampled via submandibular bleed up to 24 h post-dose (n=2 mice per time point, n=3 samples per mouse) into vials containing heparin and plasma was separated for quantitative analysis as described above. […]
# Single dose pharmacokinetic parameters (clearance, volume of distribution and half-life) were initially estimated using non-compartmental methods and oral bioavailability was calculated using the ratio of the dose corrected AUC after oral dosing relative to that after IV administration. Nominal doses were used in the calculations unless the measured dose differed by more than 15% from the nominal dose, in which case the measured dose was used. […]
# [3] = 6.25 mg/kg bid, individual animals 1-4
# [4] = 6.25 mg/kg qd, individual animals 1-5
compound,measurement,setting,value
Cc1[nH]c2nc(N)nc(C)c2c1-c1ccc(C#N)c2c1OCO2 [DNDI-6174],reduction in parasite burden,L. infantum [1]; 6.25 mg/kg bid,more than 95%
same,"efficacy, in words",L. infantum [1]; 6.25 mg/kg once daily,not sufficient for efficacy
same,minimum efficacious daily dose,L. infantum [1]; given bid for 5 days,6.25 mg/kg
same,"parasite score, Bone-marrow",L. infantum [2]; [3],++ (2×) and - (2×)
same,"parasite score, Liver",L. infantum [2]; [3],+ (2×) and - (2×)
same,"parasite score, Spleen",L. infantum [2]; [3],++ (2×) and - (2×)
same,"parasite score, Bone-marrow",L. infantum [2]; [4],++
same,"parasite score, Liver",L. infantum [2]; [4],+ (4×) and ++
same,"parasite score, Spleen",L. infantum [2]; [4],++ (4×) and +
same,Vd,In vivo pharmacokinetics,1.12 L/kg

# Source: article PMC7615677, “DNDI-6174, a preclinical candidate for visceral leishmaniasis that targets the cytochrome bc1 complex” (Science translational medicine, 2023)
